# Measured affinities in a library of Ab-14 light chain variants

Values reported by Li et al. 2023, doi:10.1038/s41467-023-39022-2 (FLAb copy).

The target is the same throughout: PDVDLGDISGINAS, from the HR2 region of SARS-CoV-2 spike.

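Phage display of a naive human antibody library on the peptide gave the parent. These sequences belong to a second round, designed from the earlier measurements on random variants of the parent. Several design methods are mixed in this list. In AlphaSeq, yeast of one mating type display the scFv and yeast of the other type display the target. Mating (16 h, 30 °C) was followed by selection of diploids and sequencing of their barcodes. A regression on co-assayed BCL2-family reference pairs converts the normalised counts of each replicate to an apparent Kd. There are six technical replicates.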

Parent scFv Ab-14: VH joined to VL by a (GGGGS)3 linker. Changes lie in the light chain CDRs alone.
VH: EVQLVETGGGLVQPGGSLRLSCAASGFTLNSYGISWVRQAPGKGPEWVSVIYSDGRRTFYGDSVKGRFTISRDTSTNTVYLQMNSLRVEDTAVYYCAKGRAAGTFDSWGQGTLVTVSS
VL: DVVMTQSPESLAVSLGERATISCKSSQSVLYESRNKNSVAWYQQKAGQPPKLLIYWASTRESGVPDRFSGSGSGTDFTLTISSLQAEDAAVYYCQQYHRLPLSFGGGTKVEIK

The parent's light chain CDRs are KSSQSVLYESRNKNSVA, WASTRES, QQYHRLPLS; each variant's own CDRs replace them letter for letter.
Variants here have more than six changes.
The Kd shown is the geometric mean over detected replicates; a lower Kd is a better binder.
Where no diploid with the target was found in any replicate, the entry reads "nd": below detection, most likely a poor binder, though not proof of it.
Empty control strains, which show no peptide, gave a signal in 4% of pairings with all light chain designs; the median was 430 nM and 95% of these signals were weaker than 38 nM. No background was subtracted.
The authors' rule: three or more of the six replicates give a measured affinity, fewer mean a poor binder.
Values of this round are not directly comparable with the first-round values of the same sequences.

* NFSMSAATFVNEWSSIA, DAEISYD, QQYHRLPLV: 620 nM (5 of 6 replicates)
* NLGGLDFNSTYEMKAVA, DVSEVGE, QHYSRLPLS: 16 nM (6 of 6 replicates)
* SLYEAMQTGGLRTSNIA, DVNQQMR, QHYSRLPLM: 4.3 nM (6 of 6 replicates)
* KFEMLWDYEDRNLNSVA, NASTRED, QQYHRLPLS: 1.5 nM (6 of 6 replicates)
* KQSQSEGGESRNMNNVA, HASKRES, QQYHRLPLS: 1.2 nM (6 of 6 replicates)
* TLYGLSMSMSKEKNNVA, EMTTREK, QQYDRLPLI: 3.8 nM (6 of 6 replicates)
* KLLQSVQYGSRALNSVA, QMETRED, QQYHRLPLM: 1.9 nM (6 of 6 replicates)
* QLELVQNGDTISENSVA, HAEVSGR, QQYSQLPLI: 680 nM (1 of 6 replicates)
* TLAQPQKELGYAKDAVA, DGSIRLG, QQYHRLPLV: 2.1 nM (6 of 6 replicates)
* MVGQGLMGESRAKNSIA, HASIRFD, QHYHRLPLI: nd (0 of 6 replicates)
* KLRQSSHIESFNKNNVA, EMTTRES, QSYDRLPLS: 32 nM (6 of 6 replicates)
* TLYGLTNSMSKNKDSVA, EMSTREL, QQYDRLPLA: 7.7 nM (6 of 6 replicates)
* KFNISKEGVTSEGESIA, GSQTIDE, QQYDRLPLA: 190 nM (5 of 6 replicates)
* KLSGSFMMLSRNDNSVA, DASTRES, QQYHRLPLS: 730 pM (6 of 6 replicates)
* MIEIIQDGYMEMRSAVA, DTSLVRM, QQYARLPLM: nd (0 of 6 replicates)
* NLMSHMSELSVWKYSIA, SASIRGS, QQYFRLPLA: 16 nM (6 of 6 replicates)
* KLGEQERMNGMANQNVA, AMNTRVD, QEYHRLPLI: 1.8 nM (6 of 6 replicates)
* KISQMQRVGQTHGNSIA, EEATRAN, QQYHRLPLS: 1.4 nM (6 of 6 replicates)
* ILYESVGTLSRNKNSVA, DNSTREY, QQYDRLPLS: 550 nM (4 of 6 replicates)
* KLQQMYEYESRWPNSVA, HASTREL, QQYHRLPLS: 57 nM (6 of 6 replicates)
* HITAALAGLTGQMNSIA, ASSARCA, QQYYQLPLT: 7.9 nM (6 of 6 replicates)
* KLQFAELQESRNKNSVA, SASTRES, QQYHRLPLS: 2.2 nM (6 of 6 replicates)
* TVSQVHEMLSTNKNSVA, DMNTRES, QQYDRLPLS: 2.2 nM (6 of 6 replicates)
* TLGASTLEESRNKNSVA, EMSLREN, QSYNRLPLS: 6.2 nM (6 of 6 replicates)
* KMSQEVDLESRNVNSVA, MASTREM, QQYHRLPLS: 5.2 nM (6 of 6 replicates)
* SLNKEAWDFNQTWNAVA, DHSMRVT, QQYIRLPLT: 18 nM (6 of 6 replicates)
* QFDTNLHYMGANKNSVA, EMTERTT, QQYHRLPIE: 17 nM (6 of 6 replicates)
* KFNISKEGVTRYGKSIA, GAQTIDE, QQYDRLPLA: 29 nM (6 of 6 replicates)
* KFGSMVLTGSYVKNSVA, QSSTREN, QQYHRLPLS: 4.0 nM (6 of 6 replicates)
* NFSQMVLSGSTLRNSVA, HASTRFN, QQYHRLPLI: 550 nM (5 of 6 replicates)
* KISMMYNFASTNKNSIA, EMTTRES, QHYHRLPLS: 14 nM (6 of 6 replicates)
* KLSLGLGVQKQVEYNIA, NERLKTA, QHYDRLPLT: 3.2 nM (6 of 6 replicates)
* KISQMVKVGSTLSNSIA, EEVTRAK, QQYHRLPLS: 10 nM (6 of 6 replicates)
* KSSASVEYQERNINSVA, EASQREQ, QQYHRLPLS: 13 nM (6 of 6 replicates)
* KSEDGVDDESRNDNSVA, NASTRES, QQYHRLPLS: 1.4 nM (6 of 6 replicates)
* KAPQSDWYESRNKNSVA, SASTRSQ, QQYHRLPLQ: 3.5 nM (6 of 6 replicates)
* MMHLCQNGYYQQNNNIA, DMNERMM, QQYGRLPLM: 3.6 nM (6 of 6 replicates)
* KLSYSNLYEDRNKNSVA, NASTRCQ, QQYHRLPLS: 610 pM (6 of 6 replicates)
* KISMMINMTFEESNNVA, EMVTREK, QQYNRLPLS: nd (0 of 6 replicates)
* KISMMSTIESITHNSVA, QTSTREK, QQYDRLPLS: 6.5 nM (6 of 6 replicates)
* KLYQRGEGSQKVDRSIA, EMQTRCE, QSYQRLPLS: 23 nM (6 of 6 replicates)
* NFSQMVLTGSTLRNSVA, HASTRCE, QQYHRLPLI: 6.0 nM (6 of 6 replicates)
* MVTQMAMTGMKNKRSVA, NAEMREY, QQYNRLPLI: 13 nM (6 of 6 replicates)
* KLSMTHELEHVNRNSVA, ELVTRIS, QQYNRLPLS: 3.9 nM (6 of 6 replicates)
* KLDQSELYQSRNKQSVA, NASERES, QQYHRLPLS: 1.4 nM (6 of 6 replicates)
* KIEESTKGDRYFQYSIA, QGDIREK, QQYGQLPLT: 92 nM (4 of 6 replicates)
* RLGLNFSWPGNARQSVA, EIQKAID, QQYAHLPLS: 540 nM (4 of 6 replicates)
* KVSQLDNGESRNHNSVA, HASTRLS, QQYHRLPLS: 3.2 nM (6 of 6 replicates)
* KFSQSVTYESRMKNSVA, WISTRPH, QQYHRAPLS: nd (0 of 6 replicates)
* KLQQLVLYGSRNKNSVA, QASTRMV, QAYHRLPLS: 75 nM (4 of 6 replicates)
* KLQISDGYEQRNKNSVA, EASTRCD, QQYHRLPLS: 480 pM (6 of 6 replicates)